# esBAF inh = Bmi1 luciferase reporter increase in mESCs, primary screen, esBAF inhibitor project, mouse ES cells, Bmi1 luciferase knock-in, single point; 24 h; 100% = twice the neutral-well signal; reporter increase, % at 12.5 µM; 350,000 compounds, 2% hits; AID 602393, 2012; in the data active means activation above about 40%; inconclusive means no clear call, values can overlap the other calls;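 further: 0% = median of the plate's neutral control wells and 100% = double that signal; a rise in the Bmi1 reporter signal indicates esBAF inhibition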
# PGC1a acetyl inh = inhibitors of PGC1a acetylation signal, primary screen, cell-based, U2OS, AlphaScreen, inhibitor mode | 350,000 compounds, 0.17% hits | inhibition, % at 15.6 µM | AlphaScreen anti-acetyl-lysine; with virally co-expressed GCN5 acetyltransferase | AID 651687, 2012;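 active means every replicate shows inhibition of at least 40%; inconclusive means mean inhibition at least 40% but some replicate below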;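 further: 0% = neutral control wells and 100% = positive control wells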
# Statin myotox sup = suppressors of statin myotoxicity in C2C12 myotubes, primary screen, cell-based, single point, plate reader. rescue of ATP level, % at 7.49 µM. 330,000 compounds, 0.78% hits. C2C12 myotubes + simvastatin, ATP luminescence, 48 h; scaled: DMSO 0, geranylgeraniol control 100;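 active means mean ATP rescue above about 67%, or every replicate alone reaching that limit, limit read from the data, passing the limit was not always enough; inconclusive means no clear call, values can overlap the other calls; inactive means mean under the limit and some replicate under it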;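 further: myotubes were challenged with 10 µM simvastatin during compound exposure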
# E-selectin induc = E-selectin induction in HUVECs, primary screen, imaging, HUVEC, immunofluorescence imaging, single point; P16581; normalized: neutral wells 0, TNF-alpha wells 100; 260,000 compounds, 0.37% hits; AID 686992, 2013; activation, % at 7.58 µM;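 active means mean E-selectin-positive cell signal at least 10% of the positive control, reached in at least 60% of replicates, without over 20% cell loss; inconclusive means no rule given, readout overlaps actives, possibly toxicity-flagged; inactive means the rest, including those meeting only one limit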
#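 Read-out: % PE-positive cells | Test system: HUVEC | Doses: One compound dose added by pin transfer | Buffer or medium: EGM-2 over gelatin coat | Signal: Immunofluorescence imaging | Benchmarks: TNF-alpha, DMSO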
# PglD DTNB = C. jejuni PglD acetyltransferase inhibitors, primary screen, biochemical, DTNB colorimetric, single point. UDP-N-acetylbacillosamine N-acetyltransferase PglD (Campylobacter jejuni). purified PglD enzyme, DTNB colorimetric CoA detection. inhibition, % at 12.5 µM. 360,000 compounds, 0.098% hits; in the data active means inhibition above about 16%, passing the limit was not always enough; inconclusive means no clear call, values can overlap the other calls
# UUG fidelity = alters start codon recognition fidelity in yeast. S. cerevisiae UUG-firefly luciferase reporter, luminescence/redox ratio. AID 602363. activity score, % at 18.7 µM. hit rate 0.13% among 350,000;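 active = replicate mean at a twofold rise or more, about +100% in these data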;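 note: firefly luciferase made from a UUG start codon reports start codon fidelity; reporter light over untreated wells divided by growth signal over untreated wells; some hits fall short of that in this replicate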
# An asterisk follows results filed as active; ? = inconclusive; . = not tested or not shown. The list is not random: actives were taken first. Their share in the collection is about 2.8%.
(1) N/C(=N\c1nc2ccccc2o1)NC(=O)c1ccc(Cl)cc1
(2) N/C(=N\c1nc2ccccc2o1)NC(=O)c1ccc(F)cc1
(3) CO[C@@H]1CN(C)C(=O)c2ccc(NC(=O)Nc3c(C)noc3C)cc2OC[C@@H](C)N(CC2CC2)C[C@@H]1C
(4) O=C(Nc1ccccc1)Nc1ccccn1
(5) O=C(Nc1ccccc1)Nc1ccc2ncoc2c1
(6) O=C(Nc1ccccc1)OCCc1ccccn1
assay / compound | 1 | 2 | 3 | 4 | 5 | 6
esBAF inh | 5 | 22 | 6 | 45* | . | 80*
PGC1a acetyl inh | -2 | -14 | -12 | 7 | 1 | 14
Statin myotox sup | -35 | 83* | 8 | -7 | . | 11
E-selectin induc | . | . | 1 | . | 14 | 0
PglD DTNB | . | -1 | 2 | -3 | . | 0
UUG fidelity | . | -7 | . | -3 | . | -25

(7) O=C(Nc1ccc(Cl)cc1)Nc1ccccn1
(8) O=C(Nc1ccccc1)Nc1cccc2cccnc12
(9) O=C(Nc1ccccc1)Nc1ccc2ocnc2c1
(10) Cc1cc(C(=O)Nc2cccc3c2O[C@H](CN(C)S(C)(=O)=O)[C@H](C)CN([C@@H](C)CO)C3=O)n(C)n1
(11) CCNC(=O)C[C@H]1CC[C@H]2[C@H](COc3ccc(NC(=O)Cc4ccccc4)cc3C(=O)N2C)O1
(12) O=C(Nc1ccccc1Cl)c1ccn[nH]1
assay / compound | 7 | 8 | 9 | 10 | 11 | 12
esBAF inh | ? | 85* | 57* | -3 | -1 | 52*
PGC1a acetyl inh | 1 | -5 | 9 | . | 0 | -11
Statin myotox sup | 7 | -6 | -1 | . | 5 | -7
E-selectin induc | . | . | 0 | . | 0 | .
PglD DTNB | -7 | . | . | 1 | -3 | -2
UUG fidelity | -2 | . | -23 | 27 | -9 | -14

(13) O=C(Nc1cnccn1)Nc1ccccc1Cl
(14) O=C(Nc1ccccc1Cl)NC1(C(=O)NCc2ccncc2)CCCCC1
(15) O=C(Nc1ccccc1Cl)Nc1ccccc1Cl
(16) O=C(Nc1ccc(Cl)cn1)Nc1ccccc1Cl
(17) O=C(NCc1ccncc1)Nc1ccccc1Cl
(18) O=C(Nc1ccccc1Cl)c1ccc(C(=O)Nc2ccccc2Cl)cc1
assay / compound | 13 | 14 | 15 | 16 | 17 | 18
esBAF inh | 7 | -2 | . | 35* | 12 | .
PGC1a acetyl inh | 4 | -1 | -8 | . | -5 | .
Statin myotox sup | 1 | 0 | . | . | 116* | .
E-selectin induc | . | . | 2 | 1 | . | 6
PglD DTNB | 4 | 0 | 0 | -2 | -2 | .
UUG fidelity | -4 | -17 | -10 | 1 | -1 | .

(19) O=C(Nc1ccccn1)Nc1ccccc1Cl
(20) CCOC(=O)c1ccc(NC(=O)Nc2ccccn2)cc1
(21) CCOC(=O)c1ccc(NC(=O)Nc2cccc(C)n2)cc1
(22) Cc1cc(NC(=O)c2cc3cccc([N+](=O)[O-])c3[nH]2)ccc1F
(23) CS(=O)(=O)Nc1ccc2c(c1)[C@H]1C[C@H](CC(=O)NCc3ccc(Cl)cc3)O[C@H](CO)[C@H]1O2
(24) O=C(c1cc2cc(Br)ccc2o1)N1CCCCC1
assay / compound | 19 | 20 | 21 | 22 | 23 | 24
esBAF inh | 53* | 59* | 36 | 84* | -2 | 49*
PGC1a acetyl inh | 3 | -1 | -14 | 2 | -5 | .
Statin myotox sup | 4 | -12 | -8 | -34 | 3 | .
E-selectin induc | 0 | 0 | . | . | 0 | .
PglD DTNB | -5 | . | 1 | -3 | -5 | -7
UUG fidelity | -10 | . | -1 | -14 | . | 1

# Three compounds already listed, ordered by heavy-atom count, smallest number first.
(6) O=C(Nc1ccccc1)OCCc1ccccn1
(9) O=C(Nc1ccccc1)Nc1ccc2ocnc2c1
(3) CO[C@@H]1CN(C)C(=O)c2ccc(NC(=O)Nc3c(C)noc3C)cc2OC[C@@H](C)N(CC2CC2)C[C@@H]1C
assay / compound | 6 | 9 | 3
esBAF inh | 80* | 57* | 6
PGC1a acetyl inh | 14 | 9 | -12
Statin myotox sup | 11 | -1 | 8
E-selectin induc | 0 | 0 | 1
PglD DTNB | 0 | . | 2
UUG fidelity | -25 | -23 | .

# Additional entries follow.
(25) CC(=O)Oc1ccc2occ(-c3ccccc3)c2c1
(26) O=C(c1cccc(Br)c1)c1coc2ccc(O)cc12
(27) CC(=O)Oc1ccc2occ(C(=O)c3ccccc3)c2c1
(28) O=C(CCl)Oc1ccc2occ(C(=O)c3cccs3)c2c1
(29) CC(=O)Oc1ccc2occ(C(=O)c3cccs3)c2c1
(30) CNC[C@@H]1OCCCC[C@H](C)Oc2ccc(NC(=O)NC(C)C)cc2C(=O)N([C@H](C)CO)C[C@H]1C
assay / compound | 25 | 26 | 27 | 28 | 29 | 30
esBAF inh | 47* | 70* | . | 93* | 60* | .
PGC1a acetyl inh | . | 12 | 6 | 10 | 8 | -7
Statin myotox sup | 11 | -7 | . | 40 | 29 | .
E-selectin induc | . | -1 | 0 | . | . | 0
PglD DTNB | 3 | 3 | -2 | 0 | -4 | 4
UUG fidelity | -16 | 2 | -10 | 10 | -3 | .

(31) O=C(c1cccs1)c1coc2ccc(O)cc12
(32) CCC(=O)c1coc2ccc(O)cc12
(33) COc1cccc(CN2[C@H](CO)[C@H](c3ccccc3)C23CN(C(=O)C2CCOCC2)C3)c1
(34) C[C@@H]1CN([C@@H](C)CO)C(=O)c2cc(NC(=O)NC3CCCCC3)ccc2O[C@H]1CN(C)Cc1ccc(Cl)c(Cl)c1
(35) COc1ccc2c3c(n(C)c2c1)[C@H](CO)N(Cc1nccs1)CC31CN(C(=O)CC2CC2)C1
(36) Nc1nn(-c2ccccc2)nc1C(=O)OCc1ccccc1
assay / compound | 31 | 32 | 33 | 34 | 35 | 36
esBAF inh | 67* | . | . | -1 | . | 17
PGC1a acetyl inh | -2 | -4 | -7 | 1 | -1 | 72*
Statin myotox sup | 12 | . | . | . | . | 2
E-selectin induc | . | . | 0 | 0 | 0 | .
PglD DTNB | 1 | -2 | . | 1 | . | -1
UUG fidelity | 5 | -15 | . | -1 | . | -8

(37) Cc1ccc(COC(=O)c2nn(-c3ccccc3)nc2N)cc1
(38) Cc1cc(N2CCOCC2)ccc1/C=C1\NC(=O)N(CC(=O)Nc2ccccc2C)C1=O
(39) C=CCN1C(=O)S/C(=C\c2ccc(N3CCOCC3)cc2C)C1=O
(40) CCN1[C@@H]2c3ccc(-c4ccncc4)c(=O)n3C[C@@H]2[C@@H](CO)[C@@H]1C(=O)Nc1ccccc1
(41) C[C@@H]1CCCCO[C@@H](CN(C)S(=O)(=O)c2ccccc2)[C@H](C)CN([C@@H](C)CO)C(=O)c2cc(NC(=O)NC3CCCCC3)ccc2O1
(42) CCCCn1cnc2c(SCCc3ccccc3)nc(N)nc21
assay / compound | 37 | 38 | 39 | 40 | 41 | 42
esBAF inh | 5 | 15 | 73* | -4 | 4 | .
PGC1a acetyl inh | 5 | -9 | 0 | 0 | -11 | 1
Statin myotox sup | 4 | -5 | 2 | 2 | . | 99*
E-selectin induc | 0 | . | . | 0 | 0 | 1
PglD DTNB | 0 | 3 | -2 | 7 | 0 | 7
UUG fidelity | -3 | -8 | -14 | . | 0 | -19

(43) CCCn1cnc2c(SCCc3ccccc3)nc(N)nc21
(44) CC(C)Cn1cnc2c(SCc3ccccc3)nc(N)nc21
(45) O=C(Nc1ccccc1F)N1C[C@H]2[C@@H](c3ccccc31)[C@@H](CO)N2C(=O)C1CCCCC1
(46) C[C@@H]1CN([C@@H](C)CO)C(=O)c2cc(C3=CCCCC3)cnc2O[C@H]1CN(C)Cc1ccccn1
(47) CC1CCN(C(=O)c2cc3nc(-c4ccccc4)cc(-c4ccccc4)n3n2)CC1
(48) O=C(NC1CCCC1)c1cc2nc(-c3ccccc3)cc(-c3ccccc3)n2n1
(49) O=C(CCCSc1nc(-c2ccco2)cc(C(F)(F)F)n1)NCc1cccs1
(50) O=C(CSc1nc(-c2ccco2)cc(C(F)(F)F)n1)NCCc1ccccc1
(51) Cc1cc(NC(=O)CCCSc2nc(-c3ccco3)cc(C(F)(F)F)n2)no1
assay / compound | 43 | 44 | 45 | 46 | 47 | 48 | 49 | 50 | 51
esBAF inh | 61* | 76* | 24 | 6 | 1 | . | 0 | -1 | -2
PGC1a acetyl inh | . | 1 | -6 | -2 | 6 | 7 | -16 | 2 | -17
Statin myotox sup | -2 | -1 | 3 | 1 | 83* | . | 126* | 89* | -20
E-selectin induc | 0 | 0 | 0 | 0 | . | 0 | . | . | .
PglD DTNB | -1 | 3 | -1 | 3 | 2 | -5 | 2 | . | -5
UUG fidelity | -18 | -23 | 8 | -14 | -15 | -19 | 12 | . | 0

# Source: PubChem BioAssay
